pIC50, pKi: −log10 of the molar value.

The chains behind the UniProt entries cited, without tags or fusion partners.
UniProt Q92847, whole entry: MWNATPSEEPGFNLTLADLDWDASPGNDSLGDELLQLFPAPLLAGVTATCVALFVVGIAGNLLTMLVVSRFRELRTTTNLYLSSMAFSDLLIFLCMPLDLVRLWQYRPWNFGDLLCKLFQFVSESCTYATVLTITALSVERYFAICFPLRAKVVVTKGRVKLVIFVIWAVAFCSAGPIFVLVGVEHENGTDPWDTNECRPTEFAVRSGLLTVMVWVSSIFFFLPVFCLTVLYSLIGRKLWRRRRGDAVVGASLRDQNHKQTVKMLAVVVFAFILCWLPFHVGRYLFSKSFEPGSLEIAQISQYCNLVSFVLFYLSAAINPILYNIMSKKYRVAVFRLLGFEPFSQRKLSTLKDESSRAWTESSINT

The experiment concerns the target human ghrelin receptor (GRLN, growth hormone secretagogue receptor, hGHS-R1a) (Homo sapiens, UniProt Q92847). The experiment is described as follows: Competitive radioligand binding assay (ghrelin receptor), Method B1. Particulars: Ghrelin receptor binding activity.

As usually defined, the pIC50 is −log10 of the IC50, conventionally taken in molar units. What is called pKi is the negative decadic logarithm of the Ki, by convention in mol/L. A low value points to a large Ki. On to `CCC(C)[C@@H]1NCCCc2ccccc2[C@H]2C[C@@H]2CNC(=O)[C@@H](Cc2ccccc2)NC(=O)[C@H](C(C)O)N(C)C1=O` (single isomer, unassigned) [1335], for which the pIC50 was less than 6.30 and the pKi is 6.30 to 7.00.
`CC(C)[C@@H]1NCCOc2ccccc2C2CCC(C2)NC(=O)[C@@H](Cc2ccc(F)cc2)NC(=O)[C@H](C(C)O)N(C)C1=O` (single isomer, unassigned) [1903c] gave a pIC50 of 6.30 to 7.00.
For the compound `CCC(C)[C@@H]1NCCNc2ccccc2CCCNC(=O)[C@@H](Cc2ccc(Cl)cc2)NC(=O)[C@H](C(C)O)N(C)C1=O` (stereo partly drawn), the pIC50 is 7.00 to 8.00.
With `CC(C)[C@@H]1NCCOc2cccc(F)c2/C=C/CNC(=O)[C@@H]([C@@H](C)c2c[nH]c3ccccc23)NC(=O)[C@H](C(C)O)N(C)C1=O` (stereo partly drawn), the pIC50 was 6.30 to 7.00.
Same read-out and setting: next, `CC[C@@H]1CCc2c(cccc2C(F)(F)F)OCCN[C@@H](CC)C(=O)N(C)[C@@H](C(C)O)C(=O)N[C@H](Cc2ccc(F)cc2)C(=O)N1` (stereo partly drawn): less than 6.30.
For the compound `CC(C)C[C@@H]1NCCOc2ccccc2/C=C/CNC(=O)[C@@H](Cc2ccccc2)NC(=O)[C@H](C(C)O)N(C)C1=O` (stereo partly drawn), the pIC50 is 6.30 to 7.00 and the pKi was 7.00 to 8.00.
For `CC[C@@H]1NCCOc2ccccc2C2CCC(C2)NC(=O)[C@@H](Cc2ccc(F)cc2)NC(=O)[C@H](C(C)O)N(C)C1=O` (stereo partly drawn), the pIC50 is 6.30 to 7.00.
Consider `CC(C)[C@@H]1NCCOc2ccccc2C2CCC(C2)NC(=O)[C@@H](Cc2ccccc2)NC(=O)[C@H](C(C)O)N(C)C1=O` (single isomer, unassigned) [1849], for which the pIC50 was 7.00 to 8.00.
For `CC[C@@H]1NC[C@@H](C)Oc2cccc3c2CC(CC3)CNC(=O)[C@@H](Cc2ccc(F)cc2)NC(=O)[C@H](C(C)O)N(C)C1=O` (stereo partly drawn), the pIC50 was 7.00 to 8.00.
In turn, `CC[C@@H]1CCc2c(C#N)cccc2OCCN[C@@H](CC)C(=O)N(C)[C@@H](C(C)O)C(=O)N[C@H](Cc2ccc(F)cc2)C(=O)N1` (stereo partly drawn) showed a pIC50 of less than 6.30.
In turn, `CC(O)[C@H]1C(=O)N[C@H](Cc2ccc(Cl)cc2)C(=O)N[C@@H](C)CCc2ccccc2OCCN[C@@H](C2CCCCC2)C(=O)N1C` (stereo partly drawn) had a negative-log IC50 (pIC50) of 6.30 to 7.00.
As to `CCC(C)[C@@H]1NCCOc2ccccc2/C=C(\F)CNC(=O)[C@@H](Cc2ccccc2)NC(=O)[C@H](C(C)O)N(C)C1=O` (stereo partly drawn), the pIC50 was less than 6.30 and the pKi is 6.30 to 7.00.
`CCC(C)[C@@H]1NCCOc2cccc3c2CC(CC3)CNC(=O)[C@@H](Cc2ccc(O)cc2)NC(=O)[C@H](C(C)O)N(C)C1=O` (single isomer, unassigned) [1790b] had a pIC50 of 6.30 to 7.00.
`CCC(C)[C@@H]1NCCOc2ccccc2/C=C\CNC(=O)[C@@H](Cc2ccc(F)cc2)NC(=O)[C@H](C(C)O)N(C)C1=O` (stereo partly drawn) had a pKi of 6.30 to 7.00.
`CC[C@@H]1NCCOc2ccccc2C2CCC(C2)NC(=O)[C@@H](Cc2c[nH]c3ccccc23)NC(=O)[C@H](C(C)O)N(C)C1=O` (single isomer, unassigned) [1900b] had a pIC50 of less than 6.30.
On to `CC(C)[C@@H]1NCCOc2ccccc2C2CCC(C2)NC(=O)[C@@H](Cc2c[nH]c3ccccc23)NC(=O)[C@H](C(C)O)N(C)C1=O` (single isomer, unassigned), for which the pIC50 is 7.00 to 8.00.
On the same count and under the same terms, in the case of `CC(O)[C@H]1C(=O)N[C@H](Cc2ccccc2)C(=O)NC2CCC(C2)c2ccccc2OCCN[C@@H](C2(C)CC2)C(=O)N1C` (stereo partly drawn) it was 6.30 to 7.00; in that of `CC(C)C[C@@H]1NCCOc2cccc3c2CC(CC3)CNC(=O)[C@@H](Cc2ccccc2)NC(=O)[C@H](C(C)O)N(C)C1=O` (stereo partly drawn), 7.00 to 8.00.
The compound `CC[C@@H]1NCCOc2ccccc2C2CCC(C2)NC(=O)[C@@H](Cc2c[nH]c3ccccc23)NC(=O)[C@H](C(C)O)N(C)C1=O` (single isomer, unassigned) [1900a] showed a pIC50 of 7.00 to 8.00.
Consider `CC[C@@H]1CCc2c(C#N)cccc2OCCN[C@@H](CC)C(=O)N(C)[C@@H](C(C)O)C(=O)N[C@H](Cc2c[nH]c3ccccc23)C(=O)N1` (stereo partly drawn), for which the pIC50 is less than 6.30.
Same read-out and setting: next, `CC(C)[C@@H]1NCCOc2cccc3c2CC(CC3)CNC(=O)[C@@H](Cc2ccc(C(F)(F)F)cc2)NC(=O)[C@H](C(C)O)N(C)C1=O` (single isomer, unassigned) [1860b]: 7.00 to 8.00.

For the origin of these results see patent publication US20110105389A1 (priority 2009, published 2011).
